This is an account of results in patent US10053431B2, “Tetrahydro-benzodiazepinones” (priority 2013, dated 2018).

By UniProt entry, the sequences of proteins in these tests, tags left out. Chains listed by the source or under a name are the forms on record and can include a tag or linker. Residues count along the entry.
UniProt P98170, 124-240 with tags or gaps C202A/C213G limits assumed: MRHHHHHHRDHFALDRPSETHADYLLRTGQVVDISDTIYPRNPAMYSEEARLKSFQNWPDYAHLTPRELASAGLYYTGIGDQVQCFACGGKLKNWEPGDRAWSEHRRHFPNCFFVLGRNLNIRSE
UniProt P98170, 241-356 with tags or gaps limits assumed: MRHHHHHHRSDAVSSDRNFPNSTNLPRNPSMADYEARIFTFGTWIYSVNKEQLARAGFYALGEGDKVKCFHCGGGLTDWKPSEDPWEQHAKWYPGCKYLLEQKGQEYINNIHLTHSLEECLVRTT

Structures can show the parent of a compound that is named as a salt. Where only a bound is given, the exact number is not on record here.

By IC50 is commonly meant the midpoint of a concentration-inhibition curve.

One assay addresses BIR2 domain of XIAP (Homo sapiens (Human), UniProt P98170, C202A/C213G). The experiment in a line: TR-FRET assay for BIR2 (inhibition of binding of XIAP BIR2 domain to SMAC-derived Peptide A). The settings on record: 6x His-tagged BIR2 domain (aa 124-240 of XIAP) 10 nM, Peptide A 20 nM.
On to `CN[C@@H](C)C(=O)N[C@H]1CN(C(=O)c2ccc(F)cc2)c2ccccc2N(Cc2c(OC)ccc3c(Br)cccc23)C1=O` [Example 92, (S)—N—[(S)-1-(5-Bromo-2-methoxy-naphthalen-1-ylmethyl)-5-(4-fluoro-benzoyl)-2-oxo-2,3,4,5-tetrahydro-1H-benzo[b][1,4]diazepin-3-yl]-2-methylamino-propionamide hydrochloride], for which the IC50 came to 9 nM.
Still for that read-out and setting: under `CN[C@@H](C)C(=O)N[C@@H]1C(=O)N(C(C(=O)Nc2c(F)cccc2F)c2ccccc2)c2ccccc2N(C(C)=O)[C@H]1C` (stereo partly drawn) [Example 192, (2S)-N-((2S,3S)-1-acetyl-5-(2-(2,6-difluorophenylamino)-2-oxo-1-phenylethyl)-2-methyl-4-oxo-2,3,4,5-tetrahydro-1H-benzo[b][1,4]diazepin-3-yl)-2-(methylamino)propanamide hydrochloride] stands 240 nM; under `CN[C@@H](C)C(=O)N[C@H]1CN(C(=O)c2ccc(C(=O)NCC3CCCCC3)cc2)c2ccccc2N(Cc2c(OC)ccc3cc(Br)ccc23)C1=O` [Example 31, 4-[(S)-5-(6-Bromo-2-methoxy-naphthalen-1-ylmethyl)-3-((S)-2-methylamino-propionylamino)-4-oxo-2,3,4,5-tetrahydro-benzo[b][1,4]diazepine-1-carbonyl]-N-cyclohexylmethyl-benzamide hydrochloride], 41 nM.
The same measure, in the same setting: next, `CN[C@@H](C)C(=O)N[C@H]1CN(C(=O)c2cccc(C(C)=O)c2)c2ccccc2N(Cc2c(C)ccc3ccccc23)C1=O` [Example 96g]: 65 nM; `CN[C@H](C)C(=O)N[C@H]1CN(C(=O)c2ccc(C(C)=O)cc2)c2ccccc2N(Cc2c(C)ccc3ccccc23)C1=O` [Example 68, (R)—N—((S)-5-(4-acetylbenzoyl)-1-((2-methylnaphthalen-1-yl)methyl)-2-oxo-2,3,4,5-tetrahydro-1H-benzo[b][1,4]diazepin-3-yl)-2-(methylamino)propanamide hydrochloride]: 1480 nM; `CN[C@@H](C)C(=O)N[C@H]1CN(C(=O)CCOC)c2ccccc2N(Cc2c(OC)ccc3cc(Br)ccc23)C1=O` [Example 90e]: 10 nM.
Molecule `CN[C@@H](C)C(=O)N[C@H]1CN(C(=O)c2ccc(C(N)=O)cc2)c2ccccc2N(Cc2c(OC)ccc3cc(Br)ccc23)C1=O` [Example 30, 4-[(S)-5-(6-Bromo-2-methoxy-naphthalen-1-ylmethyl)-3-((S)-2-methylamino-propionylamino)-4-oxo-2,3,4,5-tetrahydro-benzo[b][1,4]diazepine-1-carbonyl]-benzamide hydrochloride] registered an IC50 of 33 nM.
As for `[2H]C([2H])([2H])N[C@@H](C)C(=O)N[C@H]1CN(C(=O)c2ccc(C(C)=O)cc2)c2ccccc2N(Cc2c(OC)ccc3c(Br)cccc23)C1=O` [Example 69m], the IC50 was found to be 7 nM.
Same read-out and setting: under `CN[C@@H](C)C(=O)N[C@H]1CN(C(=O)c2ccc(Cl)cc2)c2ccccc2N(Cc2c(C)ccc3ccccc23)C1=O` [Example 96f] stands 20 nM.
Turning to `[2H]C([2H])([2H])N[C@@H](C)C(=O)N[C@H]1CN(C(=O)c2ccc(C(C)=O)cc2)c2ccccc2N(Cc2c(OC(F)F)ccc3ccccc23)C1=O` [Example 69n], the IC50 is 11 nM.
Still for that read-out and setting: next, `COc1ccc2cc(Br)ccc2c1CN1C(=O)[C@@H](NC(=O)[C@H](C)N(C)C)CN(C(=O)c2ccc(C(C)=O)cc2)c2ccccc21` [Example 38, (S)—N—((S)-5-(4-acetylbenzoyl)-1-((6-bromo-2-methoxynaphthalen-1-yl)methyl)-2-oxo-2,3,4,5-tetrahydro-1H-benzo[b][1,4]diazepin-3-yl)-2-(dimethylamino)propanamide]: 1070 nM.
`[2H]C([2H])([2H])Oc1ccc2cc(Br)ccc2c1CN1C(=O)[C@@H](NC(=O)[C@H](C)NC)CN(C(=O)c2ccc(C#N)cc2)c2ccccc21` [Example 84, (2S)—N-[(3S)-5-[[6-bromo-2-(trideuteriomethoxy)-1-naphthyl]methyl]-1-(4-cyanobenzoyl)-4-oxo-2,3-dihydro-1,5-benzodiazepin-3-yl]-2-(methylamino)propanamide hydrochloride] had an IC50 of 10 nM.
Same read-out and setting: under `CN[C@@H](C)C(=O)N[C@H]1CN(C(=O)c2ccc(N)cc2)c2ccccc2N(Cc2c(OC)ccc3cc(Br)ccc23)C1=O` [Example 35, (S)—N—((S)-5-(4-aminobenzoyl)-1-((6-bromo-2-methoxynaphthalen-1-yl)methyl)-2-oxo-2,3,4,5-tetrahydro-1H-benzo[b][1,4]diazepin-3-yl)-2-(methylamino)propanamide dihydrochloride] stands 6 nM; under `CN[C@@H](C)C(=O)N[C@H]1CN(C(=O)c2ccc(C#N)cc2)c2ccccc2N(Cc2c(OC)ccc3cc(Br)ccc23)C1=O` [Example 13p], 22 nM; under `CN[C@@H](C)C(=O)N[C@H]1CN(C(=O)c2ccc(C(O)(O)C(F)(F)F)cc2)c2ccccc2N(Cc2c(OC)ccc3cc(Br)ccc23)C1=O` [Example 13k], 25 nM.
`CN[C@@H](C)C(=O)N[C@H]1CN(C(=O)c2ccc(C(C)O)cc2)c2ccccc2N(Cc2c(OC)ccc3cc(Br)ccc23)C1=O` (stereo partly drawn) [Example 33, (S)—N—{(S)-1-(6-Bromo-2-methoxy-naphthalen-1-ylmethyl)-5-[4-(1-hydroxy-ethyl)-benzoyl]-2-oxo-2,3,4,5-tetrahydro-1H-benzo[b][1,4]diazepin-3-yl}-2-methylamino-propionamide hydrochloride] displayed an IC50 of 18 nM.
`CN[C@@H](C)C(=O)N[C@H]1CN(C(=O)CCC[N+](=O)[O-])c2ccccc2N(Cc2c(OC)ccc3cc(Br)ccc23)C1=O` [Example 13n] displayed an IC50 of 91 nM.
Consider `CN[C@@H](C)C(=O)N[C@H]1CN(C(=O)CS(C)(=O)=O)c2ccccc2N(Cc2nn(-c3ccccc3C#N)c3ccccc23)C1=O` [Example 159, (S)-N-((S)-1-((1-(2-cyanophenyl)-1H-indazol-3-yl)methyl)-5-(2-(methylsulfonyl)acetyl)-2-oxo-2,3,4,5-tetrahydro-1H-benzo[b][1,4]diazepin-3-yl)-2-(methylamino)propanamide hydrochloride], for which the IC50 came out at 41.3 nM.
Still for that read-out and setting: under `CN[C@@H](C)C(=O)N[C@H]1CN(C(=O)CC(C)C)c2ccccc2N(Cc2ccccc2OC)C1=O` [Example 22, (S)—N—[(S)-1-(2-Methoxy-benzyl)-5-(3-methyl-butyryl)-2-oxo-2,3,4,5-tetrahydro-1H-benzo[b][1,4]diazepin-3-yl]-2-methylamino-propionamide hydrochloride] stands 3170 nM.

In the next assay the target is BIR3 domain of XIAP (Homo sapiens (Human), UniProt P98170). The experiment in a line: TR-FRET assay for BIR3 (inhibition of binding of XIAP BIR3 domain to SMAC-derived Peptide A). The note with it: read-out: IC50 BIR3. A general note: In TR-FRET formats the signal depends on donor and acceptor labels being close together.
With `CN[C@@H](C)C(=O)N[C@H]1CN(C(=O)c2ccc(F)cc2)c2ccccc2N(Cc2c(OC)ccc3c(Br)cccc23)C1=O` [Example 92, (S)—N—[(S)-1-(5-Bromo-2-methoxy-naphthalen-1-ylmethyl)-5-(4-fluoro-benzoyl)-2-oxo-2,3,4,5-tetrahydro-1H-benzo[b][1,4]diazepin-3-yl]-2-methylamino-propionamide hydrochloride], the IC50 amounted to 13800 nM.
Consider `CC(=O)c1ccc(C(=O)N2C[C@H](NC(=O)[C@H](C)N)C(=O)N(Cc3c(C)ccc4ccccc34)c3ccccc32)cc1` [Example 64, (S)—N—((S)-5-(4-acetylbenzoyl)-1-((2-methylnaphthalen-1-yl)methyl)-2-oxo-2,3,4,5-tetrahydro-1H-benzo[b][1,4]diazepin-3-yl)-2-aminopropanamide hydrochloride], for which the IC50 was above 54800 nM.

Staying with this assay, now noted: read-out: IC50 BIR3; 6x His-tagged BIR3 domain (aa 241-356 of XIAP) 10 nM, Peptide A 20 nM, TR-FRET.
`CN[C@@H](C)C(=O)N[C@@H]1C(=O)N(C(C(=O)Nc2c(F)cccc2F)c2ccccc2)c2ccccc2N(C(C)=O)[C@H]1C` (stereo partly drawn) [Example 192, (2S)-N-((2S,3S)-1-acetyl-5-(2-(2,6-difluorophenylamino)-2-oxo-1-phenylethyl)-2-methyl-4-oxo-2,3,4,5-tetrahydro-1H-benzo[b][1,4]diazepin-3-yl)-2-(methylamino)propanamide hydrochloride]: the IC50 is above 54800 nM.
Same read-out and setting: under `CN[C@@H](C)C(=O)N[C@H]1CN(C(=O)c2cccc(C(C)=O)c2)c2ccccc2N(Cc2c(C)ccc3ccccc23)C1=O` [Example 96g] stands 44800 nM.
As to `CN[C@@H](C)C(=O)N[C@H]1CN(C(=O)CCOC)c2ccccc2N(Cc2c(OC)ccc3cc(Br)ccc23)C1=O` [Example 90e], the IC50 was determined as 48600 nM.
For `CN[C@@H](C)C(=O)N[C@H]1CN(C(=O)c2cccc(N)c2)c2ccccc2N(Cc2c(C)ccc3ccccc23)C1=O` [Example 96j], the IC50 was found to be 24600 nM.
